{
  "source": "patent US11311540B2",
  "about": "“Increasing expression of interferon regulated genes with combinations of histone deacetylase inhibitors and immunomodulatory drugs” (ACETYLON PHARMACEUTICALS, INC., priority 2016, dated 2022)",
  "system": "H929",
  "assay": "Expression profiling with Affymetrix PRIMEVIEW microarrays, number of differentially regulated genes",
  "format": "cell-based, human",
  "description": "The design of this experiment consisted of administering increasing doses of Compound A (0, 2, 3, 4 μM) in the presence or absence of a constant amount of pomalidomide (1 μM) and measuring changes in gene expression over time (up to 48 hours after cell treatment) using Affymetrix PRIMEVIEW™ chips (Affymetrix; Santa Clara, Calif.). The chip comprises a human gene expression array having more than 530,000 probes covering more than 36,000 transcripts and variants, which represent more than 20,000 genes mapped through RefSeq or via UniGene annotation. […] In the table, “A” indicates Compound A, and “Pom” indicates pomalidomide.",
  "data": [
    {"smiles": "O=C(CCCCCCNC(=O)c1cnc(N(c2ccccc2)c2ccccc2)nc1)NO", "note": "[Compound A, 2-(diphenylamino)-N-(7-(hydroxyamino)-7-oxoheptyl)pyrimidine-5-carboxamide]", "values": [
      {"measurement": "number of genes with fold expression changes greater than 2 relative to vehicle: Down", "setting": "Compound A 2 μM, 24 h", "result": 506},
      {"measurement": "number of genes with fold expression changes greater than 2 relative to vehicle: Total", "setting": "Compound A 2 μM, 24 h", "result": 826},
      {"measurement": "number of genes with fold expression changes greater than 2 relative to vehicle: Up", "setting": "Compound A 2 μM, 24 h", "result": 320},
      {"measurement": "number of genes with fold expression changes greater than 2 relative to vehicle: Down", "setting": "Compound A 2 μM, 48 h", "result": 139},
      {"measurement": "number of genes with fold expression changes greater than 2 relative to vehicle: Total", "setting": "Compound A 2 μM, 48 h", "result": 504},
      {"measurement": "number of genes with fold expression changes greater than 2 relative to vehicle: Up", "setting": "Compound A 2 μM, 48 h", "result": 365},
      {"measurement": "number of genes with fold expression changes greater than 2 relative to vehicle: Down", "setting": "Compound A 3 μM, 24 h", "result": 883},
      {"measurement": "number of genes with fold expression changes greater than 2 relative to vehicle: Total", "setting": "Compound A 3 μM, 24 h", "result": 1745},
      {"measurement": "number of genes with fold expression changes greater than 2 relative to vehicle: Up", "setting": "Compound A 3 μM, 24 h", "result": 862},
      {"measurement": "number of genes with fold expression changes greater than 2 relative to vehicle: Down", "setting": "Compound A 3 μM, 48 h", "result": 853},
      {"measurement": "number of genes with fold expression changes greater than 2 relative to vehicle: Total", "setting": "Compound A 3 μM, 48 h", "result": 1317},
      {"measurement": "number of genes with fold expression changes greater than 2 relative to vehicle: Up", "setting": "Compound A 3 μM, 48 h", "result": 464},
      {"measurement": "number of genes with fold expression changes greater than 2 relative to vehicle: Down", "setting": "Compound A 4 μM, 24 h", "result": 1635},
      {"measurement": "number of genes with fold expression changes greater than 2 relative to vehicle: Total", "setting": "Compound A 4 μM, 24 h", "result": 2645},
      {"measurement": "number of genes with fold expression changes greater than 2 relative to vehicle: Up", "setting": "Compound A 4 μM, 24 h", "result": 1010},
      {"measurement": "number of genes with fold expression changes greater than 2 relative to vehicle: Down", "setting": "Compound A 4 μM, 48 h", "result": 341},
      {"measurement": "number of genes with fold expression changes greater than 2 relative to vehicle: Total", "setting": "Compound A 4 μM, 48 h", "result": 666},
      {"measurement": "number of genes with fold expression changes greater than 2 relative to vehicle: Up", "setting": "Compound A 4 μM, 48 h", "result": 325}
    ]}
  ]
}
